## Antibody variant affinities, Ab-91 heavy chain, assay 2

All variants were tested on one target, the spike HR2 peptide PDVDLGDISGINAS (SARS-CoV-2).

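The starting antibody came from a phage panning campaign against this peptide. Variants in AAYL51 differ from the parent at up to three CDR positions; double and triple changes were sampled at random. The assay is AlphaSeq: two haploid yeast populations carry antibody and antigen on their surface. Pairs that bind mate more often; barcode pairs of the diploids are counted by sequencing. Read counts were normalised to the haploid input and turned into Kd by a linear fit to BCL2-family pairs of known affinity, for each replicate. Mating was done three times.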

Parent: Ab-91, a human scFv built as VL, the linker GGGGSGGGGSGGGGS, VH. Only the CDRs of the heavy chain vary.
VL: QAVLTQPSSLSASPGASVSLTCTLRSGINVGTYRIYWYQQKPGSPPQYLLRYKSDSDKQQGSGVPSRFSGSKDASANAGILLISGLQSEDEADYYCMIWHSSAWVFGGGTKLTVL
VH: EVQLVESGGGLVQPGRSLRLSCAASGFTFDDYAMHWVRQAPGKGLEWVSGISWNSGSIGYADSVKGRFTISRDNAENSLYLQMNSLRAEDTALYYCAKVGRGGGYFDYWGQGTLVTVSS

Variants are written as CDR1, CDR2 and CDR3 of the heavy chain (limits as in the source). Parent: GFTFDDYAMH, GISWNSGSIGYADSVK, VGRGGGYFDY. This list gathers variants with a substitution at F27 (VH, numbered from residue 1). Affinities are written as log10 Kd with Kd in nM; a lower number is a better binder. A mean of the replicates is given; it leaves out those without a signal. An entry "ND" has no value in the source: the pair was not observed among the diploids in that replicate. This suggests poor binding but is not conclusive. As a blank, each scFv also met three strains without target: over library AAYL51, 21% of these pairings were detected, typically at 4.54 and seldom below 3.26. The control count says in how many pairings with the empty strains this scFv gave a signal, with their mean in brackets.

| CDR-H1 | CDR-H2 | CDR-H3 | log10 Kd, replicates | log10 Kd (nM), mean | control signals |
|---|---|---|---|---|---|
| GWTFDDYAMH | GISWNSGSIGYAYSVK | IGRGGGYFDY | 5.05 5.58 5.90 | 5.51 | 6/9 (4.84) |
| GMTGDDYAMH | GISWNSGSIGYADSVK | VGRGGGYFDY | 4.37 ND ND | 4.37 | 2/9 (3.80) |
| GCTFDDYAMH | GISWNSSNIGYADSVK | VGRGGGYFDY | ND ND ND | ND | 0/9 |
| GDTFDDYAMH | GISWCSGSIGYADSVK | VGRGGGYFDP | ND 6.05 4.69 | 5.37 | 4/9 (4.58) |
| GTTFDDYAMH | GISWNSGSIGYADSVK | VTRGGGYFDY | ND ND ND | ND | 0/9 |
| GKTFKDYAMH | GISWNSGSIGYADSVK | VVRGGGYFDY | ND 5.73 ND | 5.73 | 1/9 (4.03) |
| GQTFDDTAMH | GISWNSGGIGYADSVK | VGRGGGYFDY | 4.65 ND ND | 4.65 | 3/9 (4.52) |
| GKTFDDYAMH | GISWNSGSIGYADSVY | VGRGGGYFDY | 4.08 ND 5.12 | 4.60 | 3/9 (5.14) |
| GPTFDDYAMH | GISWNSGSIIYADSGK | VGRGGGYFDY | ND ND ND | ND | 1/9 (4.46) |
| GPTFDDYAMH | GISWNEGSIGYADSVK | VGRGGGYFVY | ND ND ND | ND | 0/9 |
| GTTFDDYAMH | GISWNSGSIGYAHSVK | VGRGGGYFDY | 3.91 3.58 ND | 3.74 | 0/9 |
| VATFDDYAMH | GISWNSGSIGYADSVK | VGRGGGYFLY | ND ND ND | ND | 0/9 |
| GETFDDYAMH | GIPWNSGSSGYADSVK | VGRGGGYFDY | 4.50 4.49 ND | 4.49 | 0/9 |
| GQTFDDYAMH | GISWNSGYIGWADSVK | VGRGGGYFDY | 5.20 ND ND | 5.20 | 0/9 |
| GTTFDDYAMH | GITYNSGSIGYADSVK | VGRGGGYFDY | 4.50 6.14 ND | 5.32 | 3/9 (4.41) |
| GITFDDYAMH | GISWNSGSIGYADSVK | VGRGGGYFDY | 4.27 3.27 3.90 | 3.81 | 1/9 (4.21) |
| GWTFDDYAMM | GISWNSGSIGYADSVW | VGRGGGYFDY | ND 5.72 ND | 5.72 | 2/9 (4.45) |
| GDTFDDYAMH | GISWNSASIGYADSVK | VGRGYGYFDY | ND ND ND | ND | 0/9 |
| GVTFIDYAMH | GISWNSGSIGYADSNK | VGRGGGYFDY | 4.63 ND ND | 4.63 | 1/9 (3.97) |
| GNTFDDYAMH | GISWSSGSIGYADNVK | VGRGGGYFDY | ND ND ND | ND | 0/9 |
| GITFDDYAMH | GWSWNSGSIGYADSVE | VGRGGGYFDY | ND ND ND | ND | 2/9 (4.48) |
| GCTFDDYAMH | GISWNSGSIGYADSVK | VGRGGPYFGY | 5.61 ND ND | 5.61 | 3/9 (5.20) |
| GVTFDDYAMH | GISWNSGSIGYACSVK | VGRGGGYFDR | ND ND ND | ND | 0/9 |
| GSTFDDSEMH | GISWNSGSIGYADSVK | VGRGGGYFDY | ND ND ND | ND | 0/9 |
| GSTFMDYAMH | GISWNSGSIGYADSVK | VGRGGGYFDY | ND ND ND | ND | 0/9 |
| GSTFDDYAMH | GISWMSGSIGYADSVK | VGRGGGYIDY | ND ND ND | ND | 0/9 |
| GRTFDDYAMH | GISWNSGSIGYADSVK | VGRGGDYFDY | 4.63 5.25 ND | 4.94 | 0/9 |
| GVRFDDYAMH | GISWNSGSIGYADSVK | VGRGGGYFDY | 2.52 2.51 2.95 | 2.66 | 1/9 (3.55) |
| GHTFDDYAMH | GSSWNSGSIGYADSAK | VGRGGGYFDY | ND ND ND | ND | 0/9 |
| GDTFDDYAMN | GMSWNSGSIGYADSVK | VGRGGGYFDY | 2.48 1.79 1.55 | 1.94 | 1/9 (3.38) |
| GDVFDDYAMH | GISWNSGSIGSADSVK | VGRGGGYFDY | ND 5.44 5.29 | 5.36 | 1/9 (6.19) |
| GDTFDDYAMH | GISWNSGSIGYADKVK | VGRGIGYFDY | ND ND 4.33 | 4.33 | 2/9 (4.11) |
| GGTFDDYAMH | GISWNSGSIDYADSVK | MGRGGGYFDY | 4.52 4.85 ND | 4.68 | 4/9 (5.11) |
| GCTFDDYAMH | GISWNSGSLGDADSVK | VGRGGGYFDY | ND ND 4.69 | 4.69 | 2/9 (3.47) |

Extract of 2 entries:

CDR-H1	CDR-H2	CDR-H3	log10 Kd, replicates	log10 Kd (nM), mean	control signals
GSTFMDYAMH	GISWNSGSIGYADSVK	VGRGGGYFDY	ND ND ND	ND	0/9
GDVFDDYAMH	GISWNSGSIGSADSVK	VGRGGGYFDY	ND 5.44 5.29	5.36	1/9 (6.19)

Parent in this assay: reference entry 1.86, copy in this library 0.88.

Source: Engelhart et al. 2022 (doi:10.1038/s41597-022-01779-4), MIT Lincoln Laboratory and A-Alpha Bio; data file from the FLAb repository.